Melting point values, as collected for the OPERA models

The melting point is given in degrees Celsius.

For COc1c(OC)c(OC(C)=O)c2c(Cl)cccc2c1OC(C)=O [5-Chloro-2,3-dimethoxy-1,4-naphthalenediyl diacetate] the data give MP 134 °C.
For O=C1CCCN1c1cccc(O)c1 [1-(3-hydroxyphenyl)pyrrolidin-2-one] the data give MP 202 °C.
For NNC(=O)CSc1nc2ccccc2o1 [2-[(1,3-Benzoxazol-2-yl)sulfanyl]acetohydrazide] the data give MP 170 °C.
For N=C(CCl)NO [Chloro-N-hydroxyethanimidamide] the data give MP 85 °C.
For O=Cc1cc(Br)ccc1OCc1ccccc1 [2-(benzyloxy)-5-bromobenzaldehyde] the data give MP 62 °C.
For Cc1cccc(-c2n[nH]c(=S)o2)c1 [5-(3-methylphenyl)-1,3,4-oxadiazole-2-thiol] the data give MP 159 °C.
For CNC(=O)c1ccc(OC)c([N+](=O)[O-])c1 [4-Methoxy-N-methyl-3-nitrobenzamide] the data give MP 165 °C.
For O=C(O)C1CC(=O)N(c2ccccc2F)C1 (stereo unspecified) [1-(2-fluorophenyl)-5-oxopyrrolidine-3-carboxylic acid] the data give MP 132 °C.
For Cc1ccc(-c2ccc(C=O)o2)cc1 [5-(4-methylphenyl)-2-furaldehyde] the data give MP 54 °C.
For Nc1ccc(S(=O)(=O)Nc2cccc(F)c2)cc1 [4-Amino-N-(3-fluorophenyl)benzene-1-sulfonamide] the data give MP 169 °C.
For Clc1ncnc2ncccc12 [4-Chloropyrido[2,3-d]pyrimidine] the data give MP 238 °C.
For NC(=S)Cc1cccc(Cl)c1 [(3-Chlorophenyl)ethanethioamide] the data give MP 106 °C.
For CC(C)(C)c1cc([N+](=O)[O-])c(O)c(C(C)(C)C)c1 [2,4-di-tert-butyl-6-nitrophenol] the data give MP 59 °C.
For Cc1ccc(S(C)(=O)=O)cc1S(=O)(=O)Cl [5-methanesulfonyl-2-methylbenzene-1-sulfonyl chloride] the data give MP 137 °C.
For N#CCCC(=O)c1cccnc1 [4-Oxo-4-(pyridin-3-yl)butanenitrile] the data give MP 72 °C.
For c1ccc(-c2cn[nH]c2)cc1 [4-Phenylpyrazole] the data give MP 230 °C.
For O=C(O)c1cccc(S(=O)(=O)N2CCc3ccccc3C2)c1 [3-(3,4-Dihydro-1H-isoquinoline-2-sulfonyl)-benzoic acid] the data give MP 56.5 °C.
For Nc1ncc(Cc2ccccc2)s1 [5-benzyl-1,3-thiazol-2-amine] the data give MP 107 °C.
For CC(C)(C)c1ccc(C(=O)CCCN2CCC(OC(c3ccccc3)c3ccccc3)CC2)cc1.O=C(O)/C=C/C(=O)O the data give MP 199 °C.
For CCOC(=O)c1cc([N+](=O)[O-])cnc1C [Ethyl 2-methyl-5-nitronicotinate] the data give MP 48.5 °C.
For NCCCN1CCC(C(N)=O)CC1 [1-(3-Aminopropyl)piperidine-4-carboxamide] the data give MP 95 °C.
For NC(=NO)C(c1ccccc1)c1ccccc1 [N'-hydroxy-2,2-diphenylethanimidamide] the data give MP 125 °C.
For CCCCOc1ccc(/C=N/c2ccc(CC)cc2)cc1 [4-Butyloxybenzal-4'-ethylaniline] the data give MP 40.5 °C.
For CS(=O)(=O)NC1CCNCC1 [N-(Piperidin-4-yl)methanesulfonamide] the data give MP 144 °C.
For N=c1nc(O)c(O[C@@H]2O[C@H](CO)[C@@H](O)[C@H](O)[C@H]2O)c(N)[nH]1 [Vicine] the data give MP 243.5 °C.
For CCNc1cc(C#N)c(N)c2c1C(=O)c1ccccc1C2=O the data give MP 236.7 °C.
For Nc1ccc2ccccc2c1/N=N/c1ccc([N+](=O)[O-])cc1 [C.I. Solvent Red 5] the data give MP 185.5 °C.
For Cc1c(F)ccc(C(=O)Cl)c1F [2,4-Difluoro-3-methylbenzoyl chloride] the data give MP 36.5 °C.
For Cc1ccc(NC(=O)C(C)C)cc1N [N-(3-Amino-4-methylphenyl)-2-methylpropanamide] the data give MP 161 °C.
For Clc1cc(Cl)c(Oc2cc(Cl)c(Cl)c(Cl)c2)cc1Cl [2,3',4,4',5,5'-Hexachlorodiphenyl ether] the data give MP 84 °C.
For N=c1[nH]c2c(ccc3ccccc32)s1 [Naphtho[1,2-d]thiazol-2-amine] the data give MP 135 °C.
For NC(=O)NCC(F)(F)F [N-(2,2,2-Trifluoroethyl)urea] the data give MP 111 °C.
For Cc1cc(C)c2c(N)nsc2n1 [4,6-dimethylisothiazolo[5,4-b]pyridin-3-amine] the data give MP 181 °C.
For Cc1cc(C(=O)O)cc(S(=O)(=O)Cl)c1C [3-chlorosulfonyl-4,5-dimethyl-benzoic Acid] the data give MP 172 °C.
For O=C(NO)C12CC3CC(CC(C3)C1)C2 [n-hydroxyadamantane-1-carboxamide] the data give MP 111 °C.
For O=C(O)Cn1ccc([N+](=O)[O-])n1 [(3-Nitro-1H-pyrazol-1-yl)acetic acid] the data give MP 173 °C.
For O=C(CC(F)(F)F)c1ccccc1 [3,3,3-trifluoro-1-phenylpropan-1-one] the data give MP 38 °C.
For COc1cccc(NC(=O)CCl)c1 [Acetamide, 2-chloro-N-(3-methoxyphenyl)- (9CI)] the data give MP 74 °C.
For COc1ccc(-c2nnn(CC(=O)O)n2)cc1OC [[5-(3,4-dimethoxyphenyl)-2H-tetrazol-2-yl]acetic acid] the data give MP 260 °C.
For Clc1ccc(Cl)c(-c2c(Cl)cccc2Cl)c1 the data give MP 103 °C.
For O=C(c1ccccn1)N1CCNCC1 [(Piperazin-1-yl)(pyridin-2-yl)methanone] the data give MP 232 °C.
For Nc1ccc(S(=O)(=O)C(F)(F)F)cc1N [4-(Trifluoromethanesulfonyl)benzene-1,2-diamine] the data give MP 110 °C.
For O=C(O)CCc1n[nH]c(=O)[nH]c1=O the data give MP 204 °C.
For COc1ccccc1-c1ccccc1C(=O)O [2-(2-methoxyphenyl)benzoic acid] the data give MP 150 °C.
For O=C1CCCc2c1[nH]c1ccccc21 [2,3,4,9-tetrahydro-1H-carbazol-1-one] the data give MP 170 °C.
For CN(C)C(=O)c1cccnc1Cl [2-chloro-N,N-dimethylnicotinamide] the data give MP 70 °C.
For CC(=O)OCC(=O)[C@@]1(O)CC[C@H]2[C@@H]3CCC4=CC(=O)C=C[C@]4(C)[C@@]34O[C@H]4C[C@@]21C the data give MP 183.5 °C.
For O=S(=O)(Cl)c1cnc(Cl)nc1Cl [2,4-Dichloropyrimidine-5-sulfonyl chloride] the data give MP 97 °C.
For OCC(I)CC(F)(F)C(F)(F)C(F)(F)C(F)(F)C(F)(F)C(F)(F)F (stereo unspecified) [4,4,5,5,6,6,7,7,8,8,9,9,9-Tridecafluoro-2-iodononan-1-ol] the data give MP 45 °C.
For Cc1nc2scc(-c3ccccc3)c2c(=O)n1N [Thieno(2,3-d)pyrimidin-4(3H)-one, 3-amino-2-methyl-5-phenyl-] the data give MP 135 °C.
For Cc1cc(C(=O)NN)c2ccccc2n1 [2-methylquinoline-4-carbohydrazide] the data give MP 178 °C.

Extract of 7 entries:

SMILES	name	MP (°C)
CC(C)(C)c1cc([N+](=O)[O-])c(O)c(C(C)(C)C)c1	2,4-di-tert-butyl-6-nitrophenol	59
N=c1nc(O)c(O[C@@H]2O[C@H](CO)[C@@H](O)[C@H](O)[C@H]2O)c(N)[nH]1	Vicine	243.5
O=Cc1cc(Br)ccc1OCc1ccccc1	2-(benzyloxy)-5-bromobenzaldehyde	62
Nc1ccc(S(=O)(=O)C(F)(F)F)cc1N	4-(Trifluoromethanesulfonyl)benzene-1,2-diamine	110
Cc1cc(C(=O)O)cc(S(=O)(=O)Cl)c1C	3-chlorosulfonyl-4,5-dimethyl-benzoic Acid	172
CN(C)C(=O)c1cccnc1Cl	2-chloro-N,N-dimethylnicotinamide	70
O=C(CC(F)(F)F)c1ccccc1	3,3,3-trifluoro-1-phenylpropan-1-one	38

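OPERA's authors assembled the values from existing databases and did not measure them anew. A listed value is a point estimate from one report or more. Method and conditions are not stated for these values. Where a salt, mixture or single isomer is drawn, the source does not say that exactly this form was tested. Some entries may be limits or estimates that an upstream database listed as plain numbers.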

Values as listed in the OPERA 2.9 repository of K. Mansouri.